Measurements as given in US8664249B2, “Tetrasubstituted benzenes” (EnVivo Pharmaceuticals, Inc., priority 2007, dated 2014).

Molecular target: γ-secretase (Homo sapiens, UniProt P49768)
Assay: Aβ42 lowering in HEK-293 cells overexpressing APP (ELISA of conditioned medium)
Assay type: cell-based
Conditions: read-out: Activity (EC50 for lowering Aβ42), in vitro

- EC50: < 1 µM
SMILES: CC(C)CC(C(=O)O)c1cc(OCC2CC2)c(Cl)c(-c2ccc(C(F)(F)F)cc2)c1 (stereo not shown)
